For test [1], the target named is T1, dopamine D2 receptor from solubilized rat striatal tissue (rat, UniProt P61169).
T1 construct: mature; Endogenous protein in a detergent extract of rat striatum, detected by Western blot with anti-D2; also called D2 receptors
The experiment in a line: GST affinity purification (pull-down) from solubilized rat striatum, Western blot for D2 receptor. Background: Immunoblotting shows a protein as a band on a membrane.

Protein sequences, listed by entry. Tags and fused reporters are not part of them.
UniProt P61169, whole entry: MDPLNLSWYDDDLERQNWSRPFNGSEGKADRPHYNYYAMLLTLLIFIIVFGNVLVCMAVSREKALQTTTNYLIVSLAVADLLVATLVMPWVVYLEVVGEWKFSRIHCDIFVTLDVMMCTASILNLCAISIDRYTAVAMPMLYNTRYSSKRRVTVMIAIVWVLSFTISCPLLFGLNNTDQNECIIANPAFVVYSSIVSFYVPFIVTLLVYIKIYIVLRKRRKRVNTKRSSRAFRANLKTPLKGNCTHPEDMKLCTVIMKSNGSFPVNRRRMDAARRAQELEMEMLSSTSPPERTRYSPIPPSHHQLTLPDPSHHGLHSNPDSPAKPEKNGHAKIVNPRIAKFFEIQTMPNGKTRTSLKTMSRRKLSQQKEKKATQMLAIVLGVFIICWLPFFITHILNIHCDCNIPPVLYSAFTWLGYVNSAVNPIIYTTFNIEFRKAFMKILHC
UniProt P23977, whole entry: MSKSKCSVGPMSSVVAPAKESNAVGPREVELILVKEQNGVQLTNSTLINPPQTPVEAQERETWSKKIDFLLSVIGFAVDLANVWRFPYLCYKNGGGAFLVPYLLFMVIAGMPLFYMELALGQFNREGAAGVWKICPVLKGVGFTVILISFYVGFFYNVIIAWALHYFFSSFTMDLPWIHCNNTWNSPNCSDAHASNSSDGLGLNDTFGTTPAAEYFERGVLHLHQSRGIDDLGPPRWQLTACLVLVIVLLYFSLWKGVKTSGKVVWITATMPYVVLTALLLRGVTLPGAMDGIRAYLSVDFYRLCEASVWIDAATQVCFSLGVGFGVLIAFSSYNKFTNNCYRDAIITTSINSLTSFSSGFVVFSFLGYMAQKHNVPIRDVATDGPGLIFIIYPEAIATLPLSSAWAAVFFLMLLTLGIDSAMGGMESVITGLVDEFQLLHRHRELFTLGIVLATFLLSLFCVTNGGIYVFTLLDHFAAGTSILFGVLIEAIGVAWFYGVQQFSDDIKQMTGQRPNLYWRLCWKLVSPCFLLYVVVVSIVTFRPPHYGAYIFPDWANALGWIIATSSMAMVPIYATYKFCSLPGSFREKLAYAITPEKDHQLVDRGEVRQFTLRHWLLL

Test [2] deals with T2, dopamine transporter (DAT) from solubilized rat striatal tissue (rat, UniProt P23977).
T2 construct: mature; Endogenous protein in a detergent extract of rat striatum, detected by Western blot with anti-DAT; also called solubilized DAT
The test is described as follows: GST affinity purification (pull-down), Western blot for DAT.

The target of test [3] is T1, dopamine D2 receptor from solubilized …. The experiment in a line: GST affinity purification (pull-down), Western blot for D2 receptor.

The values below come from patent publication US20110091467A1 (CENTRE FOR ADDICTION AND MENTAL HEALTH, published 2011).

B1: GST fused DAT[NT3] (K35-D68) (other)
chain: MSPILGYWKIKGLVQPTRLLLEYLEEKYEEHLYERDEGDKWRNKKFELGLEFPNLPYYIDGDVKLTQSMAIIRYIADKHNMLGGCPKERAEISMLEGAVLDIRYGVSRIAYSKDFETLKVDFLSKLPEMLKMFEDRLCHKTYLNGDHVTHPDFMLYDALDVVLYMDPMCLDAFPKLVCFKKRIEAIPQIDKYLKSSKYIAWPLQGWQATFGGGDHPPKKEQNGVQLTSSTLTNPRQSPVEAQDRETWGKKID
notes: also called GST-DAT[NT3]
B1: in test [1], the binding result is recorded as “no binding”.

B2: GST fused DAT[NT2] (A16-T43) (other)
chain: MSPILGYWKIKGLVQPTRLLLEYLEEKYEEHLYERDEGDKWRNKKFELGLEFPNLPYYIDGDVKLTQSMAIIRYIADKHNMLGGCPKERAEISMLEGAVLDIRYGVSRIAYSKDFETLKVDFLSKLPEMLKMFEDRLCHKTYLNGDHVTHPDFMLYDALDVVLYMDPMCLDAFPKLVCFKKRIEAIPQIDKYLKSSKYIAWPLQGWQATFGGGDHPPKAPAKEPNAVGPKEVELILVKEQNGVQLT
notes: also called GST-DAT[NT2]
For the molecule B2, in test [1], the binding result was “no binding”.

B3: GST fused to D2[IL3-2-2]: S259-I311 (other)
chain: MSPILGYWKIKGLVQPTRLLLEYLEEKYEEHLYERDEGDKWRNKKFELGLEFPNLPYYIDGDVKLTQSMAIIRYIADKHNMLGGCPKERAEISMLEGAVLDIRYGVSRIAYSKDFETLKVDFLSKLPEMLKMFEDRLCHKTYLNGDHVTHPDFMLYDALDVVLYMDPMCLDAFPKLVCFKKRIEAIPQIDKYLKSSKYIAWPLQGWQATFGGGDHPPKSPPERTRYSPIPPSHHQLTLPDPSHHGLHSTPDSPAKPEKNGHAKDHPKIAKI
notes: also called GST-D2[IL3-2-2]
In the case of B3, the binding result in test [2] is on record as “no binding”.

B4: GST fused to D2[IL3-2-4] (E297-I311) (other)
chain: MSPILGYWKIKGLVQPTRLLLEYLEEKYEEHLYERDEGDKWRNKKFELGLEFPNLPYYIDGDVKLTQSMAIIRYIADKHNMLGGCPKERAEISMLEGAVLDIRYGVSRIAYSKDFETLKVDFLSKLPEMLKMFEDRLCHKTYLNGDHVTHPDFMLYDALDVVLYMDPMCLDAFPKLVCFKKRIEAIPQIDKYLKSSKYIAWPLQGWQATFGGGDHPPKEKNGHAKDHPKIAKI
notes: also called GST-D2[IL3-2-4]
For the molecule B4, the binding result in test [2] is recorded as “no binding”.

B5: GST fused to D2[IL3-2-1]: E242-P271 (other)
chain: MSPILGYWKIKGLVQPTRLLLEYLEEKYEEHLYERDEGDKWRNKKFELGLEFPNLPYYIDGDVKLTQSMAIIRYIADKHNMLGGCPKERAEISMLEGAVLDIRYGVSRIAYSKDFETLKVDFLSKLPEMLKMFEDRLCHKTYLNGDHVTHPDFMLYDALDVVLYMDPMCLDAFPKLVCFKKRIEAIPQIDKYLKSSKYIAWPLQGWQATFGGGDHPPKEAARRAQELEMEMLSSTSPPERTRYSPIPP
notes: also called GST-D2[IL3-2-1]
In the case of B5, the binding result in test [2] is recorded as “no binding”.

B6: GST fused to DAT[CT]: L583-V620 (other)
chain: MSPILGYWKIKGLVQPTRLLLEYLEEKYEEHLYERDEGDKWRNKKFELGLEFPNLPYYIDGDVKLTQSMAIIRYIADKHNMLGGCPKERAEISMLEGAVLDIRYGVSRIAYSKDFETLKVDFLSKLPEMLKMFEDRLCHKTYLNGDHVTHPDFMLYDALDVVLYMDPMCLDAFPKLVCFKKRIEAIPQIDKYLKSSKYIAWPLQGWQATFGGGDHPPKLPGSFREKLAYAIAPEKDRELVDRGEVRQFTLRHWLKV
notes: also called GST fused DAT[CT]
As for B6, the binding result in test [3] is reported as “no binding”.
